Source: article PMC4352280, “Bioactivity guided fractionation and hypolipidemic property of a novel HMG-CoA reductase inhibitor from Ficus virens Ait” (Lipids in Health and Disease, 2015)

Molecular target: T1, HMG-CoA reductase (Homo sapiens, UniProt P04035)
T1 construct: gene HMGCR; catalytic domain of the human enzyme (recombinant GST fusion protein expressed in E. coli)
T1 sequence (P04035 426-888 limits assumed): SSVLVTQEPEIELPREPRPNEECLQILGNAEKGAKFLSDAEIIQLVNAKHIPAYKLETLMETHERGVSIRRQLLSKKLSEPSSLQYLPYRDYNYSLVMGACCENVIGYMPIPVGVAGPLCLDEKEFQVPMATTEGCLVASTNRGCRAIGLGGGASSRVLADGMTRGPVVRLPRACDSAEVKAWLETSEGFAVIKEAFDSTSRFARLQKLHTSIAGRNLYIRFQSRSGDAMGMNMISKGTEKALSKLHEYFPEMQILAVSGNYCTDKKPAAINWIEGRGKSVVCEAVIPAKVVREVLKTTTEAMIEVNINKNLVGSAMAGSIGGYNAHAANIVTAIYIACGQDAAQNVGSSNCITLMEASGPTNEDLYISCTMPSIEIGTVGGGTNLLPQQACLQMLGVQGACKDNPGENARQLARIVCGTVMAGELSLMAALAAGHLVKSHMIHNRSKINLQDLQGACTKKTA
Assay: spectrophotometric HMG-CoA reductase assay kit (Sigma), NADPH oxidation
Format: biochemical

Work on `CC[C@H](C)C(=O)O[C@H]1C[C@H](O)C=C2C=C[C@H](C)[C@H](CC[C@@H](O)C[C@@H](O)CC(=O)O)[C@H]21` [Pravastatin] yielded an IC50 of 70 nM.
